Values quoted from earlier work as cited in patent US20160165928A1, “METHODS OF REDUCING METHANE EMISSION DERIVED FROM RUMINAL FERMENTATION WHILE SIMULTANEOUSLY REDUCING RISK OF NITRATE INTOXICATION” (Grasp Indústria e Comércio Ltda., priority 2011, published 2016).

System: ruminal accumulation of nitrite
Conditions: in vivo

O=S(=O)([O-])[O-].[Na+].[Na+] [sodium sulfate]
intoxication risks: minimization of intoxication risks
